Test results reported in ChEMBL document CHEMBL5375987, “Structural Fusion of Natural and Synthetic Ligand Features Boosts RXR Agonist Potency” (J Med Chem, 2023).

The chains behind the UniProt entries cited, without tags or fusion partners. Where a name states a change or a piece, a line headed by the entry shows the natural chain unless it says otherwise.
UniProt P13631, whole entry: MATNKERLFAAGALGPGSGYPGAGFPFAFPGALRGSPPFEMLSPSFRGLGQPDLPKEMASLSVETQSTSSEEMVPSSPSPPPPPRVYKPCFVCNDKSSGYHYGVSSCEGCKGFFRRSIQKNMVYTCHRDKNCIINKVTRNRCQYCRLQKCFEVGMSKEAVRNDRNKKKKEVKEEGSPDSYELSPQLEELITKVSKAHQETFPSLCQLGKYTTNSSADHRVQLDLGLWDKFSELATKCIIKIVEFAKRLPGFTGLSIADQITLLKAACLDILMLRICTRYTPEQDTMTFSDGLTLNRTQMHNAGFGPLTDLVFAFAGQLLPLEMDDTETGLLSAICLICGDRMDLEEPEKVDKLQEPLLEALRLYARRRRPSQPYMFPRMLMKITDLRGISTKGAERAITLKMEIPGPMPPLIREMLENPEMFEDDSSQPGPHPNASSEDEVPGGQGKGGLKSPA
UniProt Q92570: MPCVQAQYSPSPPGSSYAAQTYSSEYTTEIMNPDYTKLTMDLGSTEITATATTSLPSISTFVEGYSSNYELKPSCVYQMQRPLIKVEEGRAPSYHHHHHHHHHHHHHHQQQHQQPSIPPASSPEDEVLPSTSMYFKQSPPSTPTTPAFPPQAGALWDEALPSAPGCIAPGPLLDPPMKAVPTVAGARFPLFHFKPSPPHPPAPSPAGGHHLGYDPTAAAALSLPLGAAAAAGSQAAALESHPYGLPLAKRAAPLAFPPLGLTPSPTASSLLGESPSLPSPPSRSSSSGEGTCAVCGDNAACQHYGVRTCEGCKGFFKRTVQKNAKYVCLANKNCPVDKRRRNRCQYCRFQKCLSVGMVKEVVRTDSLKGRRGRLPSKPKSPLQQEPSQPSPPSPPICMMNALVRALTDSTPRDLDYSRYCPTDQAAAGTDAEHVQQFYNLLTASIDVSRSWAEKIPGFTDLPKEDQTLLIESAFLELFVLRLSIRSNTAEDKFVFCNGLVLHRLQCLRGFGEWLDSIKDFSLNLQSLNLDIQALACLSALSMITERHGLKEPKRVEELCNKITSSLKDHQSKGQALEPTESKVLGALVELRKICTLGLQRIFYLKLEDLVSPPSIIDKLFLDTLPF
UniProt P10826, whole entry: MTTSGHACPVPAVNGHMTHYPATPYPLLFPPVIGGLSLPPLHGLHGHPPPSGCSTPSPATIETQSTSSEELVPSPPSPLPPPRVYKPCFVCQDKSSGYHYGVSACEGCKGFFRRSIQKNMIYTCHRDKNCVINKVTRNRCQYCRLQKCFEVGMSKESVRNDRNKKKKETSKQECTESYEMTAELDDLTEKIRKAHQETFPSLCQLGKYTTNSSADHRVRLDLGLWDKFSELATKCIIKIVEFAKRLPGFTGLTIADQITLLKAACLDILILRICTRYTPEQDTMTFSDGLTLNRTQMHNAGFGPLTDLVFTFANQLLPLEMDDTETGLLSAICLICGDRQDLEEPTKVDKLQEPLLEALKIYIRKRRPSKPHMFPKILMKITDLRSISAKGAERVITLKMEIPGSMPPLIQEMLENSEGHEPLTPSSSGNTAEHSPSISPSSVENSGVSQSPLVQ
UniProt Q9Y466: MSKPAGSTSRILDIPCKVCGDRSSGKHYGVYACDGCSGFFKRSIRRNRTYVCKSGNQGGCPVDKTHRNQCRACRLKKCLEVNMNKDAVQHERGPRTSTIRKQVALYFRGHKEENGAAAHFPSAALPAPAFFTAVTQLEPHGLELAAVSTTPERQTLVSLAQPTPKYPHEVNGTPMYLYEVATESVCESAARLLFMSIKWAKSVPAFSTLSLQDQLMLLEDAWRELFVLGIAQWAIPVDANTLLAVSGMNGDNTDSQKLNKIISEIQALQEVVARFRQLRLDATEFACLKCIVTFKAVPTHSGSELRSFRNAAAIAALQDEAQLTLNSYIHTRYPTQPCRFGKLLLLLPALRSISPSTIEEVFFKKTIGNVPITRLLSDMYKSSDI
UniProt Q13133, whole entry: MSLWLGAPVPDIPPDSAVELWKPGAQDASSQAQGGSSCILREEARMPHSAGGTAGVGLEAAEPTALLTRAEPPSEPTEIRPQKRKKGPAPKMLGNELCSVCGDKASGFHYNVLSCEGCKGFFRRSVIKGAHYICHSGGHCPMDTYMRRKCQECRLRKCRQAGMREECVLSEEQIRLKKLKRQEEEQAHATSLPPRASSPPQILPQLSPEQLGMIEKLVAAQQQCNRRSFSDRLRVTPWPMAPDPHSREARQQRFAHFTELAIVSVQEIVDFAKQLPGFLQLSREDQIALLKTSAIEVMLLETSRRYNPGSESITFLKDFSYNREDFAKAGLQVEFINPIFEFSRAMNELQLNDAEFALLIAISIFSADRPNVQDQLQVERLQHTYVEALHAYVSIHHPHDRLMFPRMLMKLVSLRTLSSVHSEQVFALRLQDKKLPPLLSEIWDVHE

Tests used:
[1] = target: T1, Nuclear receptor ROR-alpha (Homo sapiens) (UniProt P35398); assay: Agonist activity at NR1F1 (unknown origin) at 1 uM
T1 sequence (whole entry): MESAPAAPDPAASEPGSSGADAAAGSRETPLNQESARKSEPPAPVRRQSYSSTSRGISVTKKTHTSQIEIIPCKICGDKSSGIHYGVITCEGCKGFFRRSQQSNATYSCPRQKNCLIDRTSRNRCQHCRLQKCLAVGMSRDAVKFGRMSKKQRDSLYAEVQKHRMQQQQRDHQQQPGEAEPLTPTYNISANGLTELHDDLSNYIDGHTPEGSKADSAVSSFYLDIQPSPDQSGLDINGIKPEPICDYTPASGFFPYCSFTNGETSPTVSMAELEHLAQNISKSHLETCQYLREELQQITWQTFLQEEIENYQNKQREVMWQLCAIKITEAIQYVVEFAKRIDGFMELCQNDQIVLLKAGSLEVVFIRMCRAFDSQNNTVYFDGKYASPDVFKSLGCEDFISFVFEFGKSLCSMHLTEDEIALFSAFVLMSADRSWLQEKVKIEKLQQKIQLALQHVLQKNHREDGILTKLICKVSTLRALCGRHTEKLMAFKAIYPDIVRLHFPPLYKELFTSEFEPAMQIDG

[2] = target: Retinoic acid receptor gamma (Homo sapiens) (UniProt P13631); assay: Antagonist activity at NR1B3 (unknown origin) at 1 uM
[3] = target: Nuclear receptor subfamily 4 group A member 3 (Homo sapiens) (UniProt Q92570); assay: Inverse agonist activity at NR4A3 (unknown origin) at 1 uM
[4] = target: Retinoic acid receptor beta (Homo sapiens) (UniProt P10826); assay: Antagonist activity at NR1B2 (unknown origin) at 1 uM
[5] = target: T2, Peroxisome proliferator-activated receptor delta (Homo sapiens) (UniProt Q03181); assay: Agonist activity at NR1C2 (unknown origin) at 1 uM
T2 sequence (whole entry): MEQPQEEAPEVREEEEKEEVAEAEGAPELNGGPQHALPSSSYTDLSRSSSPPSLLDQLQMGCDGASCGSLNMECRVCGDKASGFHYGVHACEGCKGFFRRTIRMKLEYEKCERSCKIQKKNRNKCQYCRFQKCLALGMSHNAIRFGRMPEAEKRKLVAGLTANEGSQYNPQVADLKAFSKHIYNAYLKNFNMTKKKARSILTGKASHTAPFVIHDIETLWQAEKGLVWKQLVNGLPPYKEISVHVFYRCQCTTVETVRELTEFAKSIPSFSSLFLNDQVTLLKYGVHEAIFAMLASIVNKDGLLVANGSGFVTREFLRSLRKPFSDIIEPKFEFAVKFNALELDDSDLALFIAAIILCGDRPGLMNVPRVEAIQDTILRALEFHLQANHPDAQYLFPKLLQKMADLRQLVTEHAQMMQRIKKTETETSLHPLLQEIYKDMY

[6] = target: T3, Hepatocyte nuclear factor 4-alpha (Homo sapiens) (UniProt P41235); assay: Agonist activity at NR2A1 (unknown origin) at 1 uM
T3 sequence (whole entry): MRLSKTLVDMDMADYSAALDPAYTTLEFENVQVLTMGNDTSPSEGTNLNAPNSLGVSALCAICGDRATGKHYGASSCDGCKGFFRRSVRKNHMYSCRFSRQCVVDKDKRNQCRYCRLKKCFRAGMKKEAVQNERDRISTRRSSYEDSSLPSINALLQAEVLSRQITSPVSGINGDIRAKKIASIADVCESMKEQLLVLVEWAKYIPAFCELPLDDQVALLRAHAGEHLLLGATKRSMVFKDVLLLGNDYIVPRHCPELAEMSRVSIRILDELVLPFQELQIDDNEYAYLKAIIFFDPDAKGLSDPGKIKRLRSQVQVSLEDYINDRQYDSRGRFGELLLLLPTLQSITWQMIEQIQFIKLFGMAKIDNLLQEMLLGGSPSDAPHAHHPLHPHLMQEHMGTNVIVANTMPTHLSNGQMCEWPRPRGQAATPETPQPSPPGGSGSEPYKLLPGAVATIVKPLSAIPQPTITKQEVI

[7] = target: Nuclear receptor subfamily 2 group E member 1 (Homo sapiens) (UniProt Q9Y466); assay: Antagonist activity at NR2E1 (unknown origin) at 1 uM
[8] = target: T4, Nuclear receptor subfamily 1 group D member 2 (Homo sapiens) (UniProt Q14995); assay: Antagonist activity at NR1D2 (unknown origin) at 1 uM
T4 sequence (whole entry): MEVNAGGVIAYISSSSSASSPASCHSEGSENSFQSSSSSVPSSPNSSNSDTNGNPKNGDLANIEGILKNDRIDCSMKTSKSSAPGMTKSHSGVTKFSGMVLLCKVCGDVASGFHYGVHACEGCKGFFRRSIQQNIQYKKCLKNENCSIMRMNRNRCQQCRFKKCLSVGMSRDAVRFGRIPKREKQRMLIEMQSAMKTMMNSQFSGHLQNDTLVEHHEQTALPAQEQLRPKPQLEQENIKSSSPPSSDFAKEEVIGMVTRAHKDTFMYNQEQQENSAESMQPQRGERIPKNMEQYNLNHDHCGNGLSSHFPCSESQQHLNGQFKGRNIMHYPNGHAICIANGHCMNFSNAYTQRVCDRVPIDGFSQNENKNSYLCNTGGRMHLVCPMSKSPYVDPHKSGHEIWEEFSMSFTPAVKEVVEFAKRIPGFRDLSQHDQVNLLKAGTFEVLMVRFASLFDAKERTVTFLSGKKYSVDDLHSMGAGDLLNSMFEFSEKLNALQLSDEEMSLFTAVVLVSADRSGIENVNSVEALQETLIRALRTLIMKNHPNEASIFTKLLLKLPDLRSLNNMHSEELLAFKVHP

[9] = target: T1, Nuclear receptor ROR-alpha (Homo sapiens); assay: Inverse agonist activity at NR1F1 (unknown origin) at 1 uM
[10] = target: Oxysterols receptor LXR-alpha (Homo sapiens) (UniProt Q13133); assay: Inverse agonist activity at NR1H3 (unknown origin) at 1 uM
[11] = target: T5, Nuclear receptor ROR-beta (Homo sapiens) (UniProt Q92753); assay: Agonist activity at NR1F2 (unknown origin) at 1 uM
T5 sequence (whole entry): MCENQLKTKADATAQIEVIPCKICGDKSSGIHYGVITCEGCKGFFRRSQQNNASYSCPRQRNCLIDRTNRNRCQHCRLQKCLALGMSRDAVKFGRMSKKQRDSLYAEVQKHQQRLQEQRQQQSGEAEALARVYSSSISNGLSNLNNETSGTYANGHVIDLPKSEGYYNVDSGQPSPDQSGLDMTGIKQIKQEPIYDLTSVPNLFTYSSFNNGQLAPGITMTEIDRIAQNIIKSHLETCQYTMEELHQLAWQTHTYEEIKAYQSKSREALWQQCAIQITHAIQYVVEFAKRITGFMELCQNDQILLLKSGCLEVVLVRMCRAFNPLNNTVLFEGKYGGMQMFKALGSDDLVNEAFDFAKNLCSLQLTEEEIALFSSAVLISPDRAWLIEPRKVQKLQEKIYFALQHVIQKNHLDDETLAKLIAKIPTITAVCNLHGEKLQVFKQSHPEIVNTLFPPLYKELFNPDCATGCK

Measured: Activity

O=C(O)[C@@H]1C[C@H]1c1nc(-c2ccccc2)c(-c2cc(C(F)(F)F)cc(C(F)(F)F)c2)o1 (racemic)
inactive: all assays above

The source made the active and inactive calls.
